Earlier results, collected in patent US9517233B2, “Local cochlear application of statins for stimulating neurite regrowth in the cochlea” (Northwestern University, priority 2012, dated 2016).

Tested on: spiral ganglion neurons
Conditions: cited from Lie et al. 2010 / Whitlon et al. 2006; cited from earlier work

## Cc1cncc2cccc(S(=O)(=O)N3CCCNC[C@@H]3C)c12 [H1152, 4-methyl-5-{[(2S)-2-methyl-1,4-diazepan-1-yl]sulfonyl}isoquinoline]
  stimulation of neurite growth from spiral ganglion neurons in vitro (literature): increases neurite length; also recorded: can stimulate neurite growth

“Also recorded” adds a separate entry of the source.
